# Target: T1, Nuclear receptor ROR-gamma (Mus musculus) (UniProt P51450)
# T1 sequence (whole entry): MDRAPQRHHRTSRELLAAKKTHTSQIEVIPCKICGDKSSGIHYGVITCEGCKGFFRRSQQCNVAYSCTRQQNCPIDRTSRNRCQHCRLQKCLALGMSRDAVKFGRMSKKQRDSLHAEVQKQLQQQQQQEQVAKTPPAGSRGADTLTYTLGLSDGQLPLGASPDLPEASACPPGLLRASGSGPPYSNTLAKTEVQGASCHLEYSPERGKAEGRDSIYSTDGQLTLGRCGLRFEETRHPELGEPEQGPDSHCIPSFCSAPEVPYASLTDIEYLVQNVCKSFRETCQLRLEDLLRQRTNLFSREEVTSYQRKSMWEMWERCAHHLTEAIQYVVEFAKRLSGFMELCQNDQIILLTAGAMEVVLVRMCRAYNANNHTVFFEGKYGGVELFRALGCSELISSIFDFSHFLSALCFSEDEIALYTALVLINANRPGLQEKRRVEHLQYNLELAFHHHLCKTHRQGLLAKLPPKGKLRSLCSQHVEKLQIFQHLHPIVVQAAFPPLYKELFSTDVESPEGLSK
# Assay: Agonist activity at RORgammat in C57 mouse CD4+ T cells assessed as induction of Th17 cells differentiation by measuring increase in IL17 production measured after 4 days by flow cytometry analysis relative to control
# Type: cell-based
# Conditions: CD4+ve Th, filed as agonist, time 4.0 day
smiles,measurement,value
CC(=O)N1CCN(c2ccc3c(c2)CCN(S(=O)(=O)N(C)Cc2ccccc2C(F)(F)F)C3)CC1,max activation,122%
